{"source": "paper PMC8934631", "about": "(2022)", "binders": {"B1": {"name": "F-pHDAC4 (aa 170–183, fluorescein-GSGEVKMKLQEFVLNKK-CONH2) (peptide)", "peptide": "GSGEVKMKLQEFVLNKK", "modifications": "fluorescein on the N-terminus (5(6)-carboxyfluorescein); C-terminal amide (CONH2)"}}, "key": {"MEF2A (1–92)": {"target": "T1, MEF2A (1–92) (UniProt Q02078 1-92)", "T1 chain": "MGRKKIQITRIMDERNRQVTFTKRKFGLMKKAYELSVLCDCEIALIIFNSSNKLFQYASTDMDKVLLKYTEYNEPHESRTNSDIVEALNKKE", "test": "FP"}, "MEF2D (1–95)": {"target": "T2, MEF2D (1–95) (UniProt Q14814 1-95)", "T2 chain": "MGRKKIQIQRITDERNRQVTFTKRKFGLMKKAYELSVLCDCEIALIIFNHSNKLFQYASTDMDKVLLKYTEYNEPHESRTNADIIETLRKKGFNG", "test": "FP"}}}
{"binder": "B1", "values": [{"measurement": "Kd", "setting": "MEF2A (1–92)", "result": 17, "unit": "µM"}, {"measurement": "Kd", "setting": "MEF2D (1–95)", "result": 16, "unit": "µM"}]}
